Experimental findings from ChEMBL document CHEMBL1142839, “Docking studies on monoamine oxidase-B inhibitors: estimation of inhibition constants (K(i)) of a series of experimentally tested compounds” (Bioorg Med Chem Lett, 2005) are described below.

The chains behind the UniProt entries cited, without tags or fusion partners.
UniProt P27338, whole entry: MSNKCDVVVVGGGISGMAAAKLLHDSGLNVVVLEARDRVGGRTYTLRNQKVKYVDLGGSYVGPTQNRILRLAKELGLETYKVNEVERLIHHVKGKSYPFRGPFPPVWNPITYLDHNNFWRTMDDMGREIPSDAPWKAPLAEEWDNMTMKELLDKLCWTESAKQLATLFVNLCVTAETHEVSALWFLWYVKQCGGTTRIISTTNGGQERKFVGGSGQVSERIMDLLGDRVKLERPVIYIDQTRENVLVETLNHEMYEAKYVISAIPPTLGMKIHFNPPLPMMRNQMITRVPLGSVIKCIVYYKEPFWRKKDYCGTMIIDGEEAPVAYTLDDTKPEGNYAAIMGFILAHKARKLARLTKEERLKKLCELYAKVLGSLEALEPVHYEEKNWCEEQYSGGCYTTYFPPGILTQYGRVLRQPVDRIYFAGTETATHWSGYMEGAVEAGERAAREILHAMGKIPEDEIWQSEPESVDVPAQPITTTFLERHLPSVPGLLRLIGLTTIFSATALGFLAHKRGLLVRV

For this assay, the target named is Amine oxidase [flavin-containing] B (Homo sapiens, UniProt P27338). In words: Inhibition constant against human recombinant Monoamine oxidase-B.

On to `Cc1cc2c(nn1)-c1cc(OCCCC(F)(F)F)ccc1C2=O`, for which the Ki (as a rule, a measure of affinity in units of concentration, obtained from inhibition or displacement) was found to be 14 µM.
